Patent US20210041447A1, “AZACARBOLINE COMPOUNDS FOR THE DETECTION OF TAU AGGREGATES” (AC IMMUNE SA, priority 2018, published 2021)

Amino acid sequences for entries named in this document (tags omitted). Residues count along the entry.
UniProt P21397, whole entry: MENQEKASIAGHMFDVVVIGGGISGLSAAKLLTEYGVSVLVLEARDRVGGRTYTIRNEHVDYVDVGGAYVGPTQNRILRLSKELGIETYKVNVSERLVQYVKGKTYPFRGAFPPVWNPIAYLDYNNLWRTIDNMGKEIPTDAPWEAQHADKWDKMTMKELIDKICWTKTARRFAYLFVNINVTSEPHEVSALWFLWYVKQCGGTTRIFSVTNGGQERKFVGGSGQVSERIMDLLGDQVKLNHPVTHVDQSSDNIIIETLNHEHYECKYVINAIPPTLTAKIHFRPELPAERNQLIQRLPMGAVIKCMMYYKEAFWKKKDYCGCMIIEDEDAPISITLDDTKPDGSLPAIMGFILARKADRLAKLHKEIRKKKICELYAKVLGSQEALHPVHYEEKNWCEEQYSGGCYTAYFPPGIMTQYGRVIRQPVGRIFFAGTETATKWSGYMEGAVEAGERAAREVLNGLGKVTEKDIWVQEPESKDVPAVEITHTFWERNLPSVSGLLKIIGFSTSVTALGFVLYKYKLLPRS
UniProt P05067, 672-711 limits assumed: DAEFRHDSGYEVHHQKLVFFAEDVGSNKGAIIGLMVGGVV
UniProt P27338, whole entry: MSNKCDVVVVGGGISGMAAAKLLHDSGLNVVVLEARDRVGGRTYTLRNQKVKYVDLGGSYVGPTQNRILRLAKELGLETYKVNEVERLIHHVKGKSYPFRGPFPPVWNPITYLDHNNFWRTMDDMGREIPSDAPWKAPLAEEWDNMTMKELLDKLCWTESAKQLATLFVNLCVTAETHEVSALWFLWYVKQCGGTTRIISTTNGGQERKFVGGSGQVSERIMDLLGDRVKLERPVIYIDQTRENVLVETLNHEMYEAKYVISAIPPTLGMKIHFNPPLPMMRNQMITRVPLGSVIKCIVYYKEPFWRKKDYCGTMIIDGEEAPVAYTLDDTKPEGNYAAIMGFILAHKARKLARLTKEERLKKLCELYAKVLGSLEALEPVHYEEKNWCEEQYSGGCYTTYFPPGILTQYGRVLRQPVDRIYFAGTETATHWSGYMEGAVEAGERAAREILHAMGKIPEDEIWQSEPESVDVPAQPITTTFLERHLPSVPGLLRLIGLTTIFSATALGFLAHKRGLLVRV
UniProt Q64133, whole entry: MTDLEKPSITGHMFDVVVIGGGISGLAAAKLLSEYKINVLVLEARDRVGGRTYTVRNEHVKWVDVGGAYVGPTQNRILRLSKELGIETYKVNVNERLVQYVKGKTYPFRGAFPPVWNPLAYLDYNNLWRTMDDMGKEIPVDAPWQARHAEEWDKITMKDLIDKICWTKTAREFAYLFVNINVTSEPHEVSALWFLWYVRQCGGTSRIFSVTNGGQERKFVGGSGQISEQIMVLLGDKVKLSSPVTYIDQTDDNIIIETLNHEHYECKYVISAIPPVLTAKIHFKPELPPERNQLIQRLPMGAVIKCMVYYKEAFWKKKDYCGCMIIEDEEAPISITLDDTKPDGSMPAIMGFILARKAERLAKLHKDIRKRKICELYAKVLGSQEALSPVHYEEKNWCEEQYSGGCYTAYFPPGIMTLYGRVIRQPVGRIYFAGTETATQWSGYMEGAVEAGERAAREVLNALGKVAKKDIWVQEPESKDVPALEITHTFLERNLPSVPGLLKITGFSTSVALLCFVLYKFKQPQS
UniProt P10636, 623-708 limits assumed: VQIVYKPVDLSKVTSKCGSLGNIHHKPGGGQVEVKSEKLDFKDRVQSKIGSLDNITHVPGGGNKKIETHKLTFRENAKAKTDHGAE

Key:
MAO A [1] = biological target: MAO A (Homo sapiens, UniProt P21397); test: Binding affinity to MAO A in human HC brain homogenate, [18F]fluoroethyl harmine competition; conditions: human healthy control brain homogenate; note: key: −: poor; ∘: moderate; +: good; ++: very good; +++: excellent
Protocol: (§1) 20 μg of brain homogenate (without AD pathology) was incubated with a dilution series of each test compound (1000 to 0.06 nM) in the presence of 800 Bq of 18F-labeled MAO-A binder ([^18F]fluoroethyl harmine, FEH). The samples were shaken at 110 rpm for 45 min at 37° C. Samples were then filtered through GF/B 96-well filter plates and washed twice with 300 μL assay buffer (PBS containing 0.1% BSA and 2% DMSO). Thereafter, filter plates were sealed and a Fuji Film Imaging Plate (BAS-SR2025) was placed on top. The imaging plate was analyzed after overnight exposition using a Fuji Film BAS-5000. Non-specific signal was determined with samples containing ^18F-labeled FEH in the presence of assay buffer without brain substrate and competitor. Specific binding was calculated by subtracting the non-specific signal from the measured samples signal. The unblocked ^18F-labeled FEH signal was defined as total binding. IC50 values were calculated by Prism V6 (GraphPad) setting total binding to 100%.

amyloid-beta = amyloid-beta (Homo sapiens, UniProt P05067); test: Binding affinity to amyloid-beta in AD brain homogenate, competition with 18F-labeled beta-amyloid binder; parameters: key: −: poor; ∘: moderate; +: good; ++: very good; +++: excellent
Protocol: (§2) 20 μg of human Alzheimer disease brain homogenate was incubated with a dilution series of each test compound (1000 to 0.06 nM) in the presence of 800 Bq of ^18F-labeled beta-amyloid binder. The samples were shaken at 110 rpm for 45 min at 37° C. Samples were then filtered through GF/B 96-well filter plates and washed twice with 300 μL assay buffer (PBS containing 0.1% BSA and 2% DMSO). Thereafter, filter plates were sealed and a Fuji Film Imaging Plate (BAS-SR2025) was placed on top. The imaging plate was analyzed after overnight exposition using a Fuji Film BAS-5000. Non-specific signal was determined with samples containing ^18F-labeled beta-amyloid binder in the presence of assay buffer without brain substrate and competitor. Specific binding was calculated by subtracting the non-specific signal from the measured samples signal. The unblocked ^18F-labeled beta-amyloid binder signal was defined as total binding. IC50 values were calculated by Prism V6 (GraphPad) setting total binding to 100%.

MAO B = MAO B (Homo sapiens, UniProt P27338); test: Binding affinity to MAO B in HC brain homogenate, [18F]fluoro deprenyl competition; note: key: −: poor; ∘: moderate; +: good; ++: very good; +++: excellent
Protocol: 20 μg of human brain homogenate (without AD pathology) was incubated with a dilution series of each test compound (1000 to 0.06 nM) in the presence of 800 Bq of ^18F-labeled MAO-B binder ([^18F]fluoro deprenyl). The samples were shaken at 110 rpm for 45 min at 37° C. Samples were then filtered through GF/B 96-well filter plates and washed twice with 300 μL assay buffer (PBS containing 0.1% BSA and 2% DMSO). Thereafter, filter plates were sealed and a Fuji Film Imaging Plate (BAS-SR2025) was placed on top. The imaging plate was analyzed after overnight exposition using a Fuji Film BAS-5000. Non-specific signal was determined with samples containing ^18F-labeled fluoro deprenyl in the presence of assay buffer without brain substrate and competitor. Specific binding was calculated by subtracting the non-specific signal from the measured samples signal. The unblocked ^18F-labeled fluoro deprenyl signal was defined as total binding. IC50 values were calculated by Prism V6 (GraphPad) setting total binding to 100%.

MAO A [2] = biological target: MAO A (Mus musculus, UniProt Q64133); test: Binding affinity to MAO A in mouse brain homogenate, [18F]fluoroethyl harmine competition; note: key: −: poor; ∘: moderate; +: good; ++: very good; +++: excellent
Protocol: as §1

Tau = Tau (Homo sapiens, UniProt P10636); test: Tau binding in AD brain homogenate, competition with 18F-labeled Tau binder; parameters: key: −: poor; ∘: moderate; +: good; ++: very good; +++: excellent; conditions: non-radioactive fluorine-19 derivatives
Protocol: as §2, with “of ^18F-labeled Tau binder. The” for “of ^18F-labeled beta-amyloid binder. The”, “through GF/B 96 well filter plates” for “through GF/B 96-well filter plates”, “containing ^18F-labeled Tau-reference binder in” for “containing ^18F-labeled beta-amyloid binder in”, “unblocked ^18F-labeled Tau-binder signal was” for “unblocked ^18F-labeled beta-amyloid binder signal was”

With `Fc1ccc(-c2ccc3c(n2)[nH]c2ccncc23)cn1` as the compound, how does the “Low affinity to MAO A (HC homogenate)” value (MAO A [1]) read?
The value was “+”.

And the “Low affinity to amyloid-beta” value (amyloid-beta)?
Its value is “+++”.

And the “Low affinity to MAO B” value (MAO B)?
The value was “+++”.

What about the “Low affinity to MAO A (mouse homogenate)” value (MAO A [2]) of the same compound?
The value was “++”.

What about the “High affinity to Tau” value (Tau) of the same compound?
The value was “+++”.

For `Fc1ccc(-c2ccc3c(c2)[nH]c2ccncc23)cn1`, which “Low affinity to MAO A (HC homogenate)” value (MAO A [1]) is on record?
Its value is “−”.

What about the “Low affinity to amyloid-beta” value (amyloid-beta) of the same compound?
The value was “+++”.

What about the “Low affinity to MAO B” value (MAO B) of the same compound?
Its value is “+”.

And the “Low affinity to MAO A (mouse homogenate)” value (MAO A [2])?
Its value is “+”.
